Target: T1, uterine OT receptors (Rattus norvegicus, UniProt P70536)
T1 construct: from tissue; host or cells: uterus of diethylstilbestrol dipropionate (DES)-treated rats, crude membrane preparation
T1 sequence (P70536 1-388): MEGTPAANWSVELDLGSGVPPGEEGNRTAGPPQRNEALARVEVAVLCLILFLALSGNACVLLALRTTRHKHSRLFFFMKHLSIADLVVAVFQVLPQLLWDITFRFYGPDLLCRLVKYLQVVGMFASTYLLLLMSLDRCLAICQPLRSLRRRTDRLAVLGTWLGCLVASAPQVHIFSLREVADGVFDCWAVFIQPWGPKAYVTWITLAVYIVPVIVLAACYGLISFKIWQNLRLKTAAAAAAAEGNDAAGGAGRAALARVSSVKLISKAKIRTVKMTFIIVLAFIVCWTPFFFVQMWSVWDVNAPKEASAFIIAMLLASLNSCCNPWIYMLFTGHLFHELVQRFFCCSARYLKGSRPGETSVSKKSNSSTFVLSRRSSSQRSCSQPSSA
Test: [3H]Oxytocin (OT) radioligand binding to uterine OT receptors, crude uterine membranes from DES-treated rats
Procedure: The high affinity binding of [^3 H]Oxytocin (OT)([tyrosyl, 3,5-[^3 H]OT; 30-60 Ci/mmol; New England Nuclear. Boston, Mass.) to uterine OT receptors was based on an assay (Fuchs, A-R; Fuchs, F; Soloff, MS. 1985 J. Clin. Endocrinol. Metab. 60:37) using a crude membrane preparation of uteri taken from diethylstilbestrol dipropionate (DES)-treated (0.3 mg/kg, ip; 18-24) rats. Competition studies were conducted at equilibrium (60 minutes; 22° C.) using 1 nM[^3 H]OT in the following assay buffer: 50 mM Tris-HCl, 5 mM MgCl2, and 0.1% BSA, pH 7.4. Nonspecific binding (10% of the total binding) was determined using 1 μM unlabeled OT and the binding reaction was terminated by filtration through glass fiber filters using a cell harvester (model 7019, Skatron, Inc., Sterling, Va.). IC50 values (the concentration of tested compound that inhibits 50% of OT) were reported.
IC50 values were determined for the [^3 H]OT and [^3 H]AVP binding assays by linear regression of the relation log concentration of compound vs. percent inhibition of specific binding. Data is either reported as a given percentage of inhibition at a specified concentration,or if an IC50 was calculated, as a nanomolar concentration.

| Structure (SMILES) | IC50 [nM] |
| --- | --- |
| COc1cc(OC2CCN(Cc3cccnc3)CC2)ccc1C(=O)N1CCC(N2C(=O)OCc3ccccc32)CC1 [Example 47, 1-(1-(4-(1-(3 -Picolyl)-4-piperidinyloxy)-2-methoxybenzoyl)piperidin-4-yl)-1,2-dihydro-4(H)-3,1-benzoxazin-2-one] | 76 |
| COc1cc(OC2CCN(Cc3cccnc3C)CC2)ccc1C(=O)N1CCC(N2C(=O)OCc3ccccc32)CC1 [Example 147, 1-(1-{2-methoxy-4-[1-(2-methyl-pyridin-3-ylmethyl)piperidin-4-yloxy]-benzoyl}-piperidin-4-yl)-1,4-dihydro-benzo[1,3]oxazin-2-one] | 54 |
| CC(=O)N1CCCCC1CCOc1ccc(C(=O)N2CCC(N3C(=O)OCc4ccccc43)CC2)cc1 (stereo not shown) [Example 34, 1-(1-(4-(N-Acetyl-2-piperidinylethoxy)benzoyl)piperidin-4-yl)-1,2-dihydro-4(H)-3,1-benzoxazin-2-one] | 320 |
| COc1cc(OC2CCN(C(C)=O)CC2)ccc1C(=O)N1CCC(N2C(=O)OCc3ccccc32)CC1 [Example 27, 1-(1-(4-(4-(N-Acetyl)piperidinyloxy)-2-methoxybenzoyl)piperidin-4-yl)-1,2-dihydro-4(H)-3,1-benzoxazin-2-one] | 46 |

Source: patent US5665719A, “Benzoxazinone and benzopyrimidinone piperidinyl tocolytic oxytocin receptor antagonists” (Merck & Co., Inc., priority 1995, dated 1997)
